## Apparent affinities of Ab-14 variants for a coronavirus HR2 peptide

Antigen: PDVDLGDISGINAS, a 14-residue peptide of the SARS-CoV-2 spike HR2 region.

Parent scFv Ab-14: VH joined to VL by a 15-residue (Gly4Ser)3 linker. Changes lie in the light chain CDRs alone.
VH: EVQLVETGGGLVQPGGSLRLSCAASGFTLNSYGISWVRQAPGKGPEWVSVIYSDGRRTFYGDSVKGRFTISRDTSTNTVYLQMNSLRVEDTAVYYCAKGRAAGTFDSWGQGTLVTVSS
VL: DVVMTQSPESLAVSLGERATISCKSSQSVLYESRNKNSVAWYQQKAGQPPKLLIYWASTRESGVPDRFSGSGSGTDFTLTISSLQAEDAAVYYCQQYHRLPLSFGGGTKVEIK

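The variants were designed computationally from a first round of random CDR variants and then made and measured. Group labels follow the data file (Ctrl: baseline library sampled from a position-specific scoring matrix, with some repeated check sequences; Rand: our label for a block that the file lists under HC and that is probably the random mutants of the ten best first-round binders; En: ensemble of fine-tuned language models; GP: Gaussian process model; HC: hill climbing; Gen: genetic algorithm; Gibbs: Gibbs sampling; a sequence that several methods proposed may carry one label only). AlphaSeq pools MATa yeast showing the antibodies with MATalpha yeast showing the peptide. The frequency of each diploid, read from paired DNA barcodes, reflects how well the two displayed proteins bind. The ratio of observed to expected reads was calibrated, replicate by replicate, on BCL2-family standards whose Kd was known from biolayer interferometry. There are six technical replicates.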

Each variant is given by its three light chain CDRs, as the data file delimits them; those of the parent are KSSQSVLYESRNKNSVA, WASTRES, QQYHRLPLS. Kd is apparent (estimated from mating counts) and averaged on the log scale over replicates with a signal. Smaller is tighter. "no signal" means that the variant was in the library but no mating with the target was seen in any replicate; the authors take this as a sign of poor binding, and no number exists. The parent sequence was in this pool as ten entries: three were never detected, three once, and four in most replicates, with averages from 2.2 nM to 240 nM. A sequence measured in both rounds can read differently, since the two assays cover different ranges. As a blank, each scFv also met three strains without target: over all light chain designs, 4% of these pairings were detected, typically at 430 nM and seldom below 38 nM. The authors averaged sequences with at least three values out of six and counted those with two or fewer as poor binders.

| Kd (apparent) | seen in | CDR-L1 | CDR-L2 | CDR-L3 | group |
|---|---|---|---|---|---|
| no signal | 0/6 | KSSQSVLYEQRNGNQVA | WASTRES | QQCHRLPFS | Ctrl |
| no signal | 0/6 | KSSQSVLYESFNKNSVA | PASTRES | QQYHRMPLS | Ctrl |
| 6.6 nM | 6/6 | YVSSQAAQDRNQQYSIA | GVDYREK | QQYYHLPLS | En_Gibbs |
| 25 nM | 1/6 | KIQWYPLEFRGTIQAVA | EASTRYN | QQYMHLPLS | En_Gibbs |
| 13 nM | 6/6 | EQMQSVLYESRNKNSVA | DAKTRES | QQYHRLPLS | Rand |
| 1.3 nM | 6/6 | KSSQSELYESRNGNSVA | NASYRED | QQYHRLPLS | GP_Gibbs |
| 3.9 nM | 6/6 | KISFQYRYEQLSKNSIA | EAVTRLK | QQYHRLPLS | En_HC |
| 1.2 nM | 6/6 | KLPQSVPYESRNKNSVA | NASTREV | QQYHRLPLS | GP_Gen |
| 49 nM | 3/6 | TLDMVARGLTRKEDSVA | DNSTRES | QQYDRLPLS | En_Gen |
| 1.0 nM | 6/6 | KFSISYLYESRNENSVA | EASTREQ | QQYHRLPLS | GP_HC |
| 4.5 nM | 6/6 | KSSQSVLQESDNKNSVA | WASTRES | QQYHRLPLS | Ctrl |
| 30 nM | 3/6 | KLSQSDLYESRNKNNVA | NASTRMS | QQYHRLPLS | GP_Gen |
| 2.2 nM | 6/6 | HSSPTVTYESRNKNSWA | NASTRES | QQYHRLPLS | Rand |
| 3.2 nM | 6/6 | KIAGMSNHQESVHNNVA | ENVTRVK | QQYFRLPLS | En_Gen |
| 790 pM | 6/6 | SLIPFENQIMKGLNNIA | NTQVRAS | QQYMRLPFM | En_Gibbs |
| 15 nM | 6/6 | KLVMSWGYESRNKNAVA | HASQRCS | QQYHRLPLS | GP_Gibbs |
| 210 nM | 3/6 | TVYESMDQAMRTHNSIA | DNQTRES | QQYDRLPLS | En_Gen |
| 890 pM | 6/6 | KSSISYLGESRNKNSVA | EASTRIS | QQYHRLPLS | GP_HC |
| 26 nM | 6/6 | MLSDLVKMGVRNTNSVA | DNSTRGA | QQYDRLPLS | En_HC |
| 7.8 nM | 6/6 | KSSQSVTYESDNKNSVA | WASTRES | QQYHRLPLS | Ctrl |
| 1.5 nM | 6/6 | KFSQKVLYEDRTKNSVA | NASTRES | QQYHRLPLS | GP_HC |
| 5.2 nM | 6/6 | KLQQSWEYESRNSNSVA | QASTRMA | QQYHRLPLI | GP_Gibbs |
| 990 pM | 6/6 | KFSQSVLYESRNKNSVA | EASTRLS | QQYHRLPLS | GP_Gen |
| 3.8 nM | 6/6 | KLQQSVLPESRNKNSVA | EASLRLS | QQYHRLPLS | GP_Gibbs |
| 320 pM | 6/6 | KLSQSVLYESRNKNSVA | NADTRES | QQYHRLPLS | GP_Gen |
| 740 pM | 6/6 | KSQQSQLYESRNKNSVA | NASTRED | QQYHRLPLS | GP_HC |
| 140 nM | 5/6 | TISQMTFVESKTRNNVA | EMTTREN | QDYDRLPLS | En_HC |
| 1.6 nM | 6/6 | KLSQSVLYESRNKNSVA | GASHRES | QQYHRLPLS | GP_Gen |
| 160 nM | 5/6 | AFTQSIFYGQRDDNSIA | HADELVK | QQYDRFPLA | En_Gibbs |
| 47 nM | 6/6 | KSSQSQLPESRNKNSVA | WATTRES | QQYHRLPLS | Ctrl |
| 2.8 nM | 6/6 | KVMQSKEYESRQKNSVA | NASQREL | QQYHRLPLS | GP_Gibbs |
| 2.5 nM | 6/6 | HISSMDMHDGGIMHSIA | DTKITER | QQYMRLPLS | En_Gibbs |
| 1.4 nM | 6/6 | MISDLTMYGSRAKNSVA | DLSTRGS | QQYHRLPLS | En_HC |
| 100 nM | 1/6 | KSSQSVQYESHNKNSVN | WASFRES | QQYHRLPLS | Ctrl |
| 600 pM | 6/6 | KLEQSWEYESRNSNNVA | AASTRSD | QQYHRLPLS | GP_Gibbs |
| 4.6 nM | 6/6 | KLWIDMYNGRNQANAVA | EGNILAN | QQYARLPFL | En_Gibbs |
| 19 nM | 6/6 | KLSATYRYESQNKNSIA | EMTTRED | QCYHRLPLS | En_HC |
| no signal | 0/6 | KSRQSVLYESRNKNSVA | WASTRED | QQYHRLVLS | Ctrl |
| 1.8 nM | 6/6 | KMNGYTLQPNMDHNNVA | HGTMKEA | QQYARIPLM | En_Gibbs |
| 730 pM | 6/6 | VLPDNLLMKESQYHSIA | NGVQRME | QQYMRLPLM | En_Gibbs |
| 730 pM | 6/6 | KVYQSVLYESRNKNSVA | NASQRES | QQYHRLPLS | GP_Gen |
| 1.2 nM | 6/6 | KQSQSEGGESRNMNNVA | HASKRES | QQYHRLPLS | GP_Gibbs |
| 510 pM | 6/6 | KLMQSMEYESRNKNSVA | NASQRES | QQYHRLPLS | GP_Gen |
| 3.7 nM | 6/6 | KVSQKNLYESRMKNSVA | MASQREM | QQYHRLPLS | GP_Gibbs |
| 55 nM | 6/6 | IFSQSVLMGNLTKNSVA | QASTRFS | QQYHRLPLI | En_HC |
| 910 pM | 6/6 | RVSSMLMAGGIHYNNIA | NTKVLEY | QQYMRLPLM | En_Gibbs |
| 2.4 nM | 6/6 | KVSQSALYESRNKNSVA | EASTRES | QQYHRLPLS | GP_Gen |
| 10 nM | 6/6 | KMNGYTLQPNMPHNNVA | HGTMREA | QQYARIPLM | En_Gibbs |
| 34 nM | 6/6 | NISHFMDVTAKHNNNVA | EMTMRET | QQYHHLPLS | En_Gen |
| 51 nM | 6/6 | KSSQSVLHESRNKNSVA | QASTRES | QQYHRLPLS | Ctrl |
| 40 nM | 6/6 | MLSQMWAIGMKVSNSVA | QASTRFE | QQYERLPLI | En_Gen |
| 2.5 nM | 6/6 | TISQSLLMQTSHKNNVA | GEETRYS | QQYHRLPLS | En_HC |
| 24 nM | 6/6 | MISQLWNMGQFAINSVA | QASERSE | QQYDRLPLM | En_Gen |
| 8.5 nM | 6/6 | KSSQSVLYESRNKNSVA | NASTRES | QQYHRLPIS | Ctrl |
| 86 nM | 6/6 | KLPGSTLYESRQKNSVA | WASTRES | QQYHRLPLS | GP_HC |
| 70 nM | 4/6 | ASSNSLLYESRNKNSVA | WASTRQS | QQYHRLPLS | Ctrl |
| 1.2 nM | 6/6 | KVSESDLYESRNKNSVA | EASTRES | QQYHRLPLS | GP_Gen |
| 790 pM | 6/6 | KLSGSMLYEERMLNSVA | QASQRMS | QQYHRLPLS | GP_Gibbs |
| 350 pM | 6/6 | KVSGSMLYESRNKNSVA | DASTRES | QQYHRLPLS | GP_Gen |

Excerpt, the final 9 entries:

| CDR-L1 | CDR-L2 | CDR-L3 | group | Kd (apparent) | seen in |
|---|---|---|---|---|---|
| MLSQMWAIGMKVSNSVA | QASTRFE | QQYERLPLI | En_Gen | 40 nM | 6/6 |
| TISQSLLMQTSHKNNVA | GEETRYS | QQYHRLPLS | En_HC | 2.5 nM | 6/6 |
| MISQLWNMGQFAINSVA | QASERSE | QQYDRLPLM | En_Gen | 24 nM | 6/6 |
| KSSQSVLYESRNKNSVA | NASTRES | QQYHRLPIS | Ctrl | 8.5 nM | 6/6 |
| KLPGSTLYESRQKNSVA | WASTRES | QQYHRLPLS | GP_HC | 86 nM | 6/6 |
| ASSNSLLYESRNKNSVA | WASTRQS | QQYHRLPLS | Ctrl | 70 nM | 4/6 |
| KVSESDLYESRNKNSVA | EASTRES | QQYHRLPLS | GP_Gen | 1.2 nM | 6/6 |
| KLSGSMLYEERMLNSVA | QASQRMS | QQYHRLPLS | GP_Gibbs | 790 pM | 6/6 |
| KVSGSMLYESRNKNSVA | DASTRES | QQYHRLPLS | GP_Gen | 350 pM | 6/6 |

Source: Li et al. 2023 (doi:10.1038/s41467-023-39022-2), MIT Lincoln Laboratory and A-Alpha Bio; data file from the FLAb repository.